# Experimental data reported in patent US12391686B2, “Compounds and uses thereof” (Foghorn Therapeutics Inc., priority 2019, dated 2025).
# The chains behind the UniProt entries cited, without tags or fusion partners.
# UniProt Q9H8M2, whole entry: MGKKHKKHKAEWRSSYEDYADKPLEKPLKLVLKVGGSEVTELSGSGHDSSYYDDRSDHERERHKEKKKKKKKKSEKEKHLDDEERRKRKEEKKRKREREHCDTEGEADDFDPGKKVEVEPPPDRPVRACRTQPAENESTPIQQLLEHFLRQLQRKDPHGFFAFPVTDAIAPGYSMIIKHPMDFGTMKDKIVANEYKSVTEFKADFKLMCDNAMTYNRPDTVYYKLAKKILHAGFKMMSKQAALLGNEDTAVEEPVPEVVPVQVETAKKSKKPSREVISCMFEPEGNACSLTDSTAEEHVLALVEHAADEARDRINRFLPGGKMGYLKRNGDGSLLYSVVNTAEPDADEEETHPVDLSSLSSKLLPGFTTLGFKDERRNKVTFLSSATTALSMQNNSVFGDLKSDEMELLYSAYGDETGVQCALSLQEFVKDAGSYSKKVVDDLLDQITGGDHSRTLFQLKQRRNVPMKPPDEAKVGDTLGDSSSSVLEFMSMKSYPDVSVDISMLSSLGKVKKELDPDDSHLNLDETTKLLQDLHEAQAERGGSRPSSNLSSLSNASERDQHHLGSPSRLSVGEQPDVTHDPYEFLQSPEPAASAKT
# Read-outs that look alike come from different tables or passages of the source.
# Target: Nanoluciferase-BRD9 fusion protein (3×FLAG-NLuc-BRD9) in SYO-1 cells (Homo sapiens, UniProt Q9H8M2)
# Assay: SYO1 BRD9 NanoLuc Degradation Assay
# Details: read-out: SYO1 BRD9-NanoLuc degradation IC50, SYO-1 cells expressing 3×FLAG-NLuc-BRD9, 6 hours incubation, 1 μM top dose
SMILES,"IC50 (Table 6B, tested form: formate)","IC50 (Table 6C, tested form: formate)",IC50 (Table 6B)
CNc1cc2c(=O)n(C)cc(-c3cc(OC)c(CN4CC5CN(C(=O)CCOCCOc6ccc7c(c6)C(=O)N(C6CCC(=O)NC6=O)C7=O)CCC54)c(OC)c3)c2cn1 (stereo not drawn),< 10 nM,,
CNc1cc2c(=O)n(C)cc(-c3cc(OC)c(CN(C)CC45CC(C(=O)NCCCCCOc6cccc7c6C(=O)N(C6CCC(=O)NC6=O)C7=O)(C4)C5)c(OC)c3)c2cn1 (stereo not drawn),10 to 100 nM,,
COc1cc(-c2cn(C)c(=O)c3cnc(CO)cc23)cc(OC)c1CN1CCC2(CC1)CN(c1ccc3c(c1)C(=O)N(C1CCC(=O)NC1=O)C3)C2 (stereo not drawn),,100 to 1000 nM,
COc1cc(-c2cn(C)c(=O)c3cnc(N(C)C)cc23)cc(OC)c1CN1CCC2(CCC(N3Cc4cc5c(cc4C3)C(=O)N(C3CCC(=O)NC3=O)C5=O)CC2)CC1 (stereo not drawn),,,< 10 nM
COc1cc(-c2cn(C)c(=O)c3cnc(N4CCOCC4)cc23)cc(OC)c1CN1CCC(C(C2CCC3(CC2)CC(Oc2ccc4c(c2)C(=O)N(C2CCC(=O)NC2=O)C4)C3)C(F)(F)F)CC1 (stereo not drawn),,< 10 nM,
COc1cc(-c2cn(C)c(=O)c3cnc(N4CCC4)cc23)cc(OC)c1CN1CCC(CCN2CCN(c3ccn4c(=O)n(C5CCC(=O)NC5=O)nc4c3)CC2)CC1 (stereo not drawn),,,< 10 nM
